Curated experimental data: logP (octanol/water) values

From the experimental data distributed with OPERA 2.9.

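OPERA's authors assembled the values from existing databases and did not measure them anew. A listed value is a point estimate from one report or more. Method, purity and exact conditions of the single measurements are not given. The measured form (salt, isomer or mixture) is not always the one drawn. Some entries may be limits or estimates that an upstream database listed as plain numbers.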

logP is the log10 of the octanol-water partition coefficient; higher is more lipophilic.
Cells with "n/a" have no entry in this list.
The databases behind each value are named after "via".

SMILES	name	logP (octanol/water)	via
O=C1CCCCCCCCCCCCCC1	Cyclopentadecanone	5.6	eChemPortal
Nc1cc([N+](=O)[O-])cc(C(=O)O)c1O	3-Amino-5-nitrosalicylic acid	0.76	eChemPortal
CC(C)(C)c1ccc(C=O)cc1	4-tert-Butylbenzaldehyde	3.1	eChemPortal
CC1(C)O[C@@H]2C[C@H]3[C@@H]4C[C@H](F)C5=CC(=O)C=C[C@]5(C)[C@H]4[C@@H](O)C[C@]3(C)[C@]2(C(=O)CO)O1	Flunisolide	1.1	PubChem
O=C(Nc1cccc(N(CCO)CCO)c1)c1ccccc1	Benzamide, N-[3-[bis(2-hydroxyethyl)amino]phenyl]-	1.54	OCHEM
CC1C(C)(C)C2=C(C(=O)CCC2)C1(C)C (configuration not stated)	Cashmeran	4.2	eChemPortal
C=COC(=O)c1ccccc1	Vinyl benzoate	2.8	eChemPortal
S=C=Nc1ccc(Oc2ccccc2)cc1	Benzene, 1-isothiocyanato-4-phenoxy-	4.75	OCHEM
CCCCCCCCCCCCNc1nc(Cl)nc(Nc2ccc3c(O)c(/N=N/c4ccc(/N=N/c5ccc(S(=O)(=O)[O-])cc5)cc4)c(S(=O)(=O)[O-])cc3c2)n1.[Na+].[Na+]	n/a	-1.6	eChemPortal
CC1CCOCC1	Tetrahydro-4-methyl-2H-pyran	1.9	eChemPortal
O=C(c1ccc(F)cc1)c1ccc(F)cc1	4,4'-Difluorobenzophenone	3.37	eChemPortal
Cc1ccc(C(C)(C)C)c(O)c1	2-Tert-Butyl-5-methylphenol	4.11	OCHEM
CCCCCCCC1CCCC(=O)O1 (configuration not stated)	delta-Dodecalactone	3.48	eChemPortal
COC(=O)c1ccc(C#N)cc1[N+](=O)[O-]	Methyl 4-cyano-2-nitrobenzoate	2.26	eChemPortal
CCCC1CCC(=O)O1 (configuration not stated)	gamma-Heptalactone	1	eChemPortal
O=C(CCS)OCCn1c(=O)n(CCOC(=O)CCS)c(=O)n(CCOC(=O)CCS)c1=O	n/a	2.54	eChemPortal
CCC1(CO)COCOC1	(5-Ethyl-1,3-dioxan-5-yl)methanol	0.19	eChemPortal
COC(=O)c1ccc(C(=O)Nc2cc(Cl)ccc2Cl)cc1N	n/a	4.01	eChemPortal
CCN(CC)c1ccc(/C=C(\C#N)C(=O)OCCC[N+](C)(C)CCOC(=O)/C(C#N)=C/c2ccc(N(CC)CC)cc2)cc1.[Cl-]	n/a	1.592	eChemPortal
NC(=O)c1ccc(NC(=O)c2ccc([N+](=O)[O-])cc2)cc1	N-(4-(Aminocarbonyl)phenyl)-4-nitrobenzamide	1.45	eChemPortal
O=S(=O)([O-])CC(O)CCl.[Na+] (configuration not stated)	Sodium 3-chloro-2-hydroxypropylsulfonate	-3.81	eChemPortal
CC(=O)Nc1cccc(Nc2cc(S(=O)(=O)[O-])c(N)c3c2C(=O)c2ccccc2C3=O)c1.[Na+]	C.I. Acid Blue 324	1.6	eChemPortal
C[C@H](O)[C@H](O)[C@@H](O)[C@@H](O)C=O	L-Rhamnose	-2.17	eChemPortal
Cc1cc(/N=N/c2c([O-])c(C(=O)[O-])cc3ccccc23)c(S(=O)(=O)[O-])cc1Cl.[H+].[Mn+2]	n/a	-0.3	eChemPortal
CC(CC(=O)[O-])CC(C)(C)C.[Na+] (configuration not stated)	Sodium 3,5,5-trimethylhexanoate	0.045	eChemPortal
CC(CCO)CC1=CCCCC1 (configuration not stated)	1-Cyclohexene-1-butanol, .gamma.-methyl-	2.65	eChemPortal
CC(O)CC(C)(C)c1ccccc1 (configuration not stated)	Benzenepropanol, .alpha.,.gamma.,.gamma.-trimethyl-	2.815	eChemPortal
O=[N+]([O-])c1ccc2c(/N=N/c3c([O-])ccc4ccccc34)c([O-])cc(S(=O)(=O)[O-])c2c1.O=[N+]([O-])c1ccc2c(/N=N/c3c([O-])ccc4ccccc34)c([O-])cc(S(=O)(=O)[O-])c2c1.[Cr+3].[Na+].[Na+].[Na+]	C.I. Acid Black 172	-1.74	eChemPortal
COC1CC2CC1C1C=CCC21 (configuration not stated)	4,7-Methano-1H-indene, 3a,4,5,6,7,7a-hexahydro-5-methoxy-	3.85	eChemPortal
C[C@@H]1C[C@H]2[C@@H]3CCC4=CC(=O)C=C[C@]4(C)[C@@]3(Cl)[C@@H](O)C[C@]2(C)[C@@]1(O)C(=O)CCl	Mometasone	2.1	PubChem
CCO[Si](CCCS)(OCC)OCC	3-(Triethoxysilyl)propane-1-thiol	2.7	eChemPortal
CCCCCCCC(=O)OCC(COC(=O)CCCCCCC)OC(=O)CCCCCCC	Tricaprylin	6.7	eChemPortal
CC(=O)[O-].CN(C)c1ccc(/C=C/C2=[N+](C)c3ccccc3C2(C)C)cc1	n/a	-0.705	eChemPortal
CCCCCCCCCCCC(=O)OCC(O)COCC(O)CO (configuration not stated)	Polyglyceryl-2 laurate	3.5	eChemPortal
CC1(CO)CC1CC1CC2CC2(C)C1(C)C (configuration not stated)	n/a	4.8	eChemPortal
CCCCCCCCCCCCCCCCCCCl	Octadecyl chloride	9.43	eChemPortal
C[C@H](CCCNCC(=O)O)[C@H]1CC[C@H]2[C@@H]3CC[C@@H]4C[C@H](O)CC[C@]4(C)[C@H]3C[C@H](O)[C@]12C	Glycodeoxycholic acid	2.25	OCHEM, PubChem
CC(CCl)OP(=O)(OCC(CCl)(CCl)COP(=O)(OC(C)CCl)OC(C)CCl)OC(C)CCl (configuration not stated)	n/a	4	eChemPortal
CN(N=O)C(=O)N[C@@H](C=O)[C@@H](O)[C@H](O)[C@H](O)CO	Streptozotocin	-1.45	OCHEM
CCCCC1OC(C)CC(C)(C)O1 (configuration not stated)	2-Butyl-4,4,6-trimethyl-1,3-dioxane	3.94	eChemPortal
COc1ccc2c(c1)C(=O)N(CCc1ccc(S(N)(=O)=O)cc1)C(=O)C2(C)C	n/a	2.5	eChemPortal
O=S(=O)([O-])c1ccc(/N=N/c2ccc(O)c(/N=N/c3ccc(S(=O)(=O)[O-])c4ccccc34)c2O)c2ccccc12.[Na+].[Na+]	C.I. Acid Brown 14, disodium salt	-2.019	eChemPortal
CCCCCOC=O	Pentyl formate	2.786	eChemPortal
CC(=O)N(C[C@@H](O)CO)c1c(I)c(C(=O)NC(CO)CO)c(I)c(N(C(C)=O)[C@@H](O)CO)c1I	n/a	-2.8	OCHEM
O=S(=O)([O-])c1ccc(/N=N/c2c(O)ccc3cc(S(=O)(=O)[O-])ccc23)cc1.[Na+].[Na+]	FD&C Yellow 6	-0.099	eChemPortal
CCOC(=O)c1cnc2n(c1=O)CCC(C)C2 (configuration not stated)	n/a	0.66	OCHEM